# Reference: PubChem BioAssay AID588501 (NMMLSC, 2011)
# The list shows a part of the results, in another mix than the full data. Activity calls are given as the source filed them. Cut-off read from the data, not from the text of the source: active = inhibition above about 30%; inconclusive = no clear call, values can overlap the other calls; inactive = below that.
# Target: Lethal factor (Bacillus anthracis) (UniProt P15917)
# Assay: anthrax lethal factor cleavage blockers – biochemical, multiplex microsphere, MLPCN library, primary screen (AID 588501); note: plate controls were buffer without enzyme for full effect and enzyme alone for no effect
# Conditions: multiplex microsphere protease cleavage assay, LF; at 10 µM; stronger effect = higher value
row,Structure (SMILES),inhibition
1,CCC(=O)N(c1ccccc1)C1(COC)CCN(CCn2nnn(CC)c2=O)CC1,inactive: -5.6%
2,CCC(=O)N(c1ccccc1)C1(COC)CCN(CCc2cccs2)CC1,inactive: -1.3%
